Measured values reported in BindingDB's records for 15357993.

Amino acid sequences for entries named in this document (tags omitted). Residues count along the entry.
UniProt Q50565, 1-176: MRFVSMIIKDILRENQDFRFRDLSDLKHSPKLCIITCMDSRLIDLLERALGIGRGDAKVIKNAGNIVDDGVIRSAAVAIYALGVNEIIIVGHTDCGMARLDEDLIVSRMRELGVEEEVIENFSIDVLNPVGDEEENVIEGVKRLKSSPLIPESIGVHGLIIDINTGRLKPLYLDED

Target: Carbonic anhydrase (Methanothermobacter thermautotrophicus (strain ATCC 29096 / DSM 1053 / JCM 10044 / NBRC 100330 / Delta H), UniProt Q50565)
Assay: ASSAY_NAME: ChEMBL_302990 (CHEMBL830229) DESCRIPTION: Inhibitory constant against methanoarchaeon Methanobacterium thermoautotrophicum (Cab)

C=NO
Ki: 11.2 mM

Only a part of the results on these compounds is given; other tests are left out.
